# Reference: article PMC7723054
# The list shows a part of the results.
# B1: hsa-mir-8070 (structured_RNA)
# RNA: GGGAAAUUCUCGCUGACAACGGUUGCUGGGUGUACGAAGUUUCAGCCCAUGUGAGUGAAGCCUGAUCAUCAUGUGGCUGAAGCUUCGUGCAC
# B2: hsa-mir-649 (structured_RNA)
# RNA: GGGAACUUUCAGGCGCUUUCAAGGUACGGGUGUACGAAGUUUCAGCGUUGAAAAAUAUCUAUGUAUUAGUAAACGCUGAAGCUUCGUGCAC
# B3: hsa-mir-6782 (structured_RNA)
# RNA: GGGAGAGCAUUAGUCGCACAUGAUCAUGGGUGUACGAAGUUUCAGCGGUGUCGAACUCAUGGCUGCCACCGCUGAAGCUUCGUGCAC
# B4: hsa-mir-3617 (structured_RNA)
# RNA: GGGAAAAGGCGCUCCGACUGCUUUCUAAGGUGUACGAAGUUUCAGCGAUGGGAUUAGAAACCAUAUGUCUCAUCGCUGAAGCUUCGUGCAC
# B5: hsa-mir-6779 (structured_RNA)
# RNA: GGGAGGGAUGUUUAAUUGACGAGCCUAAGGUGUACGAAGUUUCAGCGUUUGGCAGGACAGUUUCCAAGCGCUGAAGCUUCGUGCAC
# B6: hsa-mir-4677 (structured_RNA)
# RNA: GGGAAGAAUAGUUGGCGUCCCAUUUCGCGGUGUACGAAGUUUCAGCCAGCCAUGACCUGACCUUCUGUCUGGCUGAAGCUUCGUGCAC
# B7: hsa-mir-5193 (structured_RNA)
# RNA: GGGACCGGAUGAAGGUCCUCGUCUAACAGGUGUACGAAGUUUCAGCGGGAGGUAAGAAGUCUCUGACUCCUGCUGAAGCUUCGUGCAC
# B8: hsa-mir-3065 (structured_RNA)
# RNA: GGGAACAGACCGGAGCGAACCUUUCUCCGGUGUACGAAGUUUCAGCCUGGAGUCGCCUGAGUCAUCACUCAGGCUGAAGCUUCGUGCAC
# B9: hsa-mir-4455 (structured_RNA)
# RNA: GGGAACGUGUUCGUAUGACAGCUACUCGGGUGUACGAAGUUUCAGCUUUUCCUGAGAAUAAGAGAAGGAAGGGCUGAAGCUUCGUGCAC
# B10: hsa-mir-4479 (structured_RNA)
# RNA: GGGAAGCUCAGGCAGUGGGCUAUAAGAGGGUGUACGAAGUUUCAGCGCGCGGGAAAGUUCGGGAACGCGCGGCUGAAGCUUCGUGCAC
# B11: hsa-mir-4495 (structured_RNA)
# RNA: GGGAAAGGCAUCCCAAGGGUGUAAUCCGGGUGUACGAAGUUUCAGCUGCUCAGUGGAGUUAUUUUGAGCAGCUGAAGCUUCGUGCAC
# B12: hsa-mir-122 (structured_RNA)
# RNA: GGGAACCUUACGUACGGGCGAAAUCAGAGGUGUACGAAGUUUCAGCUGUUUGUGUCUAAACUAUCAAACGGCUGAAGCUUCGUGCAC
# Molecular target: T1, LIN28A (human?, UniProt Q9H9Z2 1-209)
# T1 sequence: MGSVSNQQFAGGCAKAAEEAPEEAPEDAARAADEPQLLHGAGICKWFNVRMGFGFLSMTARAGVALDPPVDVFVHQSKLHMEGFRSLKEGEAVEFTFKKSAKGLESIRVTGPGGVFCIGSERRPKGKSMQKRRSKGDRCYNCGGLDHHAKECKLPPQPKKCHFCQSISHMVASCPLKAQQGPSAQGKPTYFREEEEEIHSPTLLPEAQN
# Assay: FOREST: bead pull-down of RNA structure library v1, barcode microarray; U1A/LIN28A: 20 mM HEPES pH 7.5, 80 mM KCl, 20 mM NaCl, 10% glycerol, 2 mM DTT, 0.1 ug/uL BSA, 4 C; BG4/CIRBP/DHX36: 10 mM Tris-HCl pH 7.5, 100 mM KCl (or LiCl),; high values mean tight binding
row,Binder,binding signal [z-score]
1,B1,1.11
2,B2,1.11
3,B3,1.11
4,B4,1.11
5,B5,1.1
6,B6,1.09
7,B7,1.09
8,B8,1.08
9,B9,1.07
10,B10,1.07
11,B11,1.07
12,B12,1.05

# Molecular target: T2, CIRBP (Homo sapiens, UniProt Q14011 1-172)
# T2 sequence: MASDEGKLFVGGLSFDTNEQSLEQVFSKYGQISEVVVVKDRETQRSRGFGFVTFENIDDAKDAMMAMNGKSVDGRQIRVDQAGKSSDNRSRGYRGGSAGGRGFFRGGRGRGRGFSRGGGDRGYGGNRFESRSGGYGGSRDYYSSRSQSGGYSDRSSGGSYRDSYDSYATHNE
# Assay: as above
row,Binder,binding signal [z-score]
1,B1,1.03
2,B2,1.04
3,B3,0.97
4,B4,1.58
5,B5,0.487
6,B6,2.17
7,B7,-0.251
8,B8,-0.734
9,B9,-0.0675
10,B10,0.684
11,B11,-0.736
12,B12,1.53

# Molecular target: T3, DHX36 (Homo sapiens, UniProt Q9H2U1 1-1008)
# T3 sequence: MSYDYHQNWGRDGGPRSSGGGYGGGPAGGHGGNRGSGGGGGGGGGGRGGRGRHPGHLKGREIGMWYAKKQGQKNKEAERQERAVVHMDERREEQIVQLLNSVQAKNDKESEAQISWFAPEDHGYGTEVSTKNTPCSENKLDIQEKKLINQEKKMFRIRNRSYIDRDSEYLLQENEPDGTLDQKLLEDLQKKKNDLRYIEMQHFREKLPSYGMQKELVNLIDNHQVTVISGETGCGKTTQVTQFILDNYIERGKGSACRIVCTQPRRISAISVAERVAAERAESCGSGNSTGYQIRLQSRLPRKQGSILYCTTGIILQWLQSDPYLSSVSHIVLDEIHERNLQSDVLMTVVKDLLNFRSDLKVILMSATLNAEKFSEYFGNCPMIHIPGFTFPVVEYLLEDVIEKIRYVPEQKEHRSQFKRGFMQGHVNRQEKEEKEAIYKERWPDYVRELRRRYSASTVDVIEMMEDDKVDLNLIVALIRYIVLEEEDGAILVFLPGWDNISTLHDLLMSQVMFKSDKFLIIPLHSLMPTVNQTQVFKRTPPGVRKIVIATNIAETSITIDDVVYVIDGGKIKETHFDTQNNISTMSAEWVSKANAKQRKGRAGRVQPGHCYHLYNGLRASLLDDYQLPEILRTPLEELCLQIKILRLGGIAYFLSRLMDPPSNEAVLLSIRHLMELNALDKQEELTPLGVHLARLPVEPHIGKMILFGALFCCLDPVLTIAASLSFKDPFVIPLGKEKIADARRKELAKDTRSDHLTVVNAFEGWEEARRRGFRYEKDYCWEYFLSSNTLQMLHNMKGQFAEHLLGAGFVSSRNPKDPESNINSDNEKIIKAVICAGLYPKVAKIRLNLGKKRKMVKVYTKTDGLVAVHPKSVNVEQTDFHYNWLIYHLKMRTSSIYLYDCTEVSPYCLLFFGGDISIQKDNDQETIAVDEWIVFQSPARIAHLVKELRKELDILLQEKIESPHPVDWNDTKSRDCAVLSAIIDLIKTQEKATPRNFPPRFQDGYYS
# Assay: as above
row,Binder,binding signal [z-score]
1,B1,-0.0559
2,B2,0.336
3,B3,0.445
4,B4,1.2
5,B5,-1.22
6,B6,0.94
7,B7,0.36
8,B8,-0.223
9,B9,-0.809
10,B10,-0.468
11,B11,-0.786
12,B12,-0.0106
